Sequences of proteins named here, by UniProt entry; tags and fusion partners are left off. A change or cut given only in a name is not applied to a line headed by its entry.
UniProt Q13231: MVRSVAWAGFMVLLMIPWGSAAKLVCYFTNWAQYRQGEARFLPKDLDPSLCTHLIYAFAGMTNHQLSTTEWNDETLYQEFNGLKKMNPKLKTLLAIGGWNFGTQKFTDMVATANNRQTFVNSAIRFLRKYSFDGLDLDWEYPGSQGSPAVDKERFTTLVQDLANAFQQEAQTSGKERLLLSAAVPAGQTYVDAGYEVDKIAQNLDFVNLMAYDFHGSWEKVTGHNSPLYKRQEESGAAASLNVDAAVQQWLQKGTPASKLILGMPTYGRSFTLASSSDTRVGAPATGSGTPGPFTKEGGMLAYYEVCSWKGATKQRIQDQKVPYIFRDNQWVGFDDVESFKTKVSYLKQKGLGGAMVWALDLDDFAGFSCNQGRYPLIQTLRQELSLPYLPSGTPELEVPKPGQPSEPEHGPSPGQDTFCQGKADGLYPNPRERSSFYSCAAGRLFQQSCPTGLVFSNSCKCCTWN

In BindingDB's records for doi:10.1016/j.chembiol.2004.10.013 (University of Dundee, 2005):

Target: Chitotriosidase-1 (Homo sapiens, UniProt Q13231)
Assay: Enzyme Inhibition Assay
Conditions: pH 5.2; 37 °C
Description: The IC50s of inhibitor against the human chitinase were determined using the fluorogenic substrate 4MU-NAG3. The fluorescence of the liberated 4MU was quantified using a Perkin Elmer LS2 fluorimeter (excitation 366 nm, emission 445 nm).

CNC(=O)NC(=N)NCCC[C@@H]1NC(=O)[C@@H](C)NC(=O)C[C@@H](C(=O)O)NC(=O)C[C@@H](C(=O)O)NC(=O)[C@H](Cc2ccccc2)N(C)C1=O [(2R,5S,8S,11S,15S)-8-benzyl-2,7-dimethyl-5-[3-({[(methylcarbamoyl)amino]methanimidoyl}amino)propyl]-3,6,9,13,17-pentaoxo-1,4,7,10,14-pentaazacycloheptadecane-11,15-dicarboxylic acid]
pIC50: 5.35

pIC50: −log10 of the molar value.
